Laboratory results from ChEMBL document CHEMBL1127508, “Conformationally restricted competitive antagonists of human/rat corticotropin-releasing factor” (J Med Chem, 1994).

How the values were obtained:
[1] = biological target: T1, Corticotropin-releasing factor receptor 1 (Rattus norvegicus) (UniProt P35353); test: Relative antagonistic potency in vitro measuring alteration of CRF-induced release of ACTH by rat anterior pituitary cells in culture; assay type: functional, cell-based; conditions: Pituitary gland cell
T1 sequence (whole entry): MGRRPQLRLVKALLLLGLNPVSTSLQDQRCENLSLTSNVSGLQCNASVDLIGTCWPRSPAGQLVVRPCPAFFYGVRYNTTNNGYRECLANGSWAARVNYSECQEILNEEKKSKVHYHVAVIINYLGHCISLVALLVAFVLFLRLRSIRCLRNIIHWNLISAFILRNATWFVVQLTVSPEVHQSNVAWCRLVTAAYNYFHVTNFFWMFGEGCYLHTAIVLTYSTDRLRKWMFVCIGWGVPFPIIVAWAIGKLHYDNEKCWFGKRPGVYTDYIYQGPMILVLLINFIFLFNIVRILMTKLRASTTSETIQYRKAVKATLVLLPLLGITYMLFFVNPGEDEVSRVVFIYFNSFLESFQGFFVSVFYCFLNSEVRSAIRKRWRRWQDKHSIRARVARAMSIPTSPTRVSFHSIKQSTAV

[2] = biological target: T1, Corticotropin-releasing factor receptor 1 (Rattus norvegicus); test: Intrinsic activity in ACTH release assay as percent CRF response; assay type: functional

Structure (SMILES): CCCC[C@@H]1NC(=O)[C@@H](NC(=O)[C@H](CC(C)C)NC(=O)[C@@H](NC(=O)[C@H](CCC(=O)O)NC(=O)[C@H](CCCN=C(N)N)NC(=O)[C@H](CC(C)C)NC(=O)[C@H](CC(C)C)NC(=O)[C@H](Cc2c[nH]cn2)NC(=O)[C@H](N)Cc2ccccc2)C(C)C)CCC(=O)NCCCC[C@@H](C(=O)N[C@@H](CCC(N)=O)C(=O)N[C@@H](CC(C)C)C(=O)N[C@@H](C)C(=O)N[C@@H](CCC(N)=O)C(=O)N[C@@H](CCC(N)=O)C(=O)N[C@@H](C)C(=O)N[C@@H](Cc2c[nH]cn2)C(=O)N[C@@H](CO)C(=O)N[C@@H](CC(N)=O)C(=O)N[C@@H](CCCN=C(N)N)C(=O)N[C@@H](CCCCN)C(=O)N[C@@H](CC(C)C)C(=O)N[C@@H](CCCC)C(=O)N[C@@H](CCC(=O)O)C(=O)N[C@H](C(=O)N[C@H](C(=O)C(N)=O)[C@@H](C)CC)[C@@H](C)CC)NC(=O)[C@H](C)NC(=O)[C@H](CCCN=C(N)N)NC(=O)[C@H](C)NC1=O
- Activity [1]: 0.05
- Intrinsic activity [2]: 25
